The list shows a part of the results.
system: A. baumannii ATCC 17978; test: relative growth (fraction of control); higher = less inhibition; conditions: 50 µM

| Compound | relative growth |
| --- | --- |
| CC(C)CC#Cc1ccc2c(c1)O[C@@H](CN(C)C(=O)C1CCOCC1)[C@@H](C)CN([C@@H](C)CO)S2(=O)=O | 0.922 |
| CC(c1cc2ccccc2s1)N(O)C(N)=O (centres undefined) | 1.21 |
| Clc1ccc([C@H]2CC(C3CC3)=NN2c2ccccc2)cc1 | 1.05 |
| Cc1ccc(S(=O)(=O)NCC[C@@H]2CC[C@@H](NS(=O)(=O)c3ccccc3Cl)[C@@H](CO)O2)cc1 | 0.971 |
| O=C(C[C@H]1C[C@H]2c3cc(NS(=O)(=O)c4ccc(F)cc4)ccc3O[C@H]2[C@@H](CO)O1)NCC(F)(F)F | 1.11 |
| Cc1cc(C)n(N)c(=O)c1C(=O)O | 0.869 |
| C[C@@H]1CN([C@H](C)CO)C(=O)CCCn2cc(nn2)CO[C@H]1CN(C)C(=O)Nc1ccc2c(c1)OCCO2 | 1.18 |
| NC(=O)c1ncn([C@@H]2O[C@H](CO)[C@@H](O)[C@H]2O)c1N | 1.03 |
| COc1ccc(C2Sc3ccccc3N(CCN(C)C)C(=O)C2OC(C)=O)cc1.Cl (centres undefined) | 1.08 |
| C[C@H]1CN([C@@H](C)CO)S(=O)(=O)c2ccc(/C=C/c3ccccc3)cc2O[C@H]1CN(C)C(=O)CN1CCOCC1 | 0.892 |
| CC1=CC(=O)CC(C)(C)C1(O)/C=C/C(C)=C\C(=O)O (mixture of isomers) [ABSCISIC ACID (cis,trans; +/-)] | 1.09 |
| O=C(C[C@@H]1C=C[C@@H](NC(=O)Nc2ccc3c(c2)OCO3)[C@@H](CO)O1)NCCCN1CCOCC1 | 0.956 |
| CCOC(=O)c1c(C)n[nH]c1N | 1.21 |
| CC[C@@]1(C)CC(=O)NC1=O | 1.04 |
| CC12CC3(C)CC(C)(C1)CC(C/N=C/c1ccc(O)cc1)(C2)C3 | 1.03 |
| O=C(C[C@@H]1C=C[C@@H](NC(=O)c2ccc(F)cc2)[C@H](CO)O1)NCc1ccncn1 | 0.897 |
| NC[C@H]1O[C@H](OC2[C@@H](N)C[C@@H](N)[C@H](O[C@H]3O[C@H](CO)[C@@H](O)[C@H](N)[C@H]3O)[C@H]2O)[C@H](O)[C@@H](O)[C@@H]1O.O=S(=O)(O)O (some centres undefined) | 0.338 |
| COC(=O)c1cnn2c(=O)c3c([nH]c12)CCC3 | 1.07 |
| CCCC(=O)Nc1ccc2c(c1)C(=O)N(C)C[C@H](OC)[C@H](C)CN(Cc1ccc(-c3ccccn3)cc1)[C@H](C)CO2 | 1.02 |
| COc1ccccc1N=C(NO)c1nonc1N | 1.03 |
| CCCNC(=O)Nc1ccc2c(c1)C(=O)N(C)C[C@H](OC)[C@@H](C)CN(C(=O)C1CCOCC1)[C@@H](C)CO2 | 0.951 |
| Cc1cc(C)c2ccc(Cl)nc2n1 | 1.01 |
| S=C=Nc1ccc(N=C=S)cc1 | 0.858 |
| O=C(O)COc1nn(Cc2ccccc2)c2ccccc12 | 0.937 |
| COCC(=O)Nc1ccc2c(c1)C(=O)N(C)C[C@H](OC)[C@H](C)CN(Cc1ccccc1F)[C@@H](C)CO2 | 1.17 |
| N=C(N)NCCN1CCCCCCC1.O=S(=O)(O)O | 1.07 |
| CCC(C)C(N)C1=NC(C(=O)NC(CC(C)C)C(=O)NC(CCC(=O)O)C(=O)NC(C(=O)NCCCCC2NC(=O)C(CC(N)=O)NC(=O)C(CC(=O)O)NC(=O)C(Cc3c[nH]cn3)NC(=O)C(Cc3ccccc3)NC(=O)C(C(C)CC)NC(=O)C(CCCN)NC2=O)C(C)CC)CS1 (centres undefined) | 0.986 |

| Compound | relative growth |
| --- | --- |
| CCCC#Cc1ccc2c(c1)O[C@H](CN(C)Cc1ccc3c(c1)OCO3)[C@H](C)CN([C@H](C)CO)S2(=O)=O | 0.894 |
| COCC#Cc1cnc2c(c1)C(=O)N([C@@H](C)CO)C[C@H](C)[C@@H](CN(C)C(=O)Nc1ccccc1OC)O2 | 1.1 |
| CNc1nc(SCC(N)=O)nc(N2CCOCC2)n1 | 1.01 |
| Cc1cc(C)c(NC(=O)[C@@H](N)Cc2ccccc2)c(Cl)c1 | 1.09 |
| C#Cc1ccc(C(=O)NO)s1 | 0.871 |
| COc1cc(C(=O)N2CCOCC2)cc(OC)c1OC | 1.26 |
| C#C[C@]1(O)CCC2[C@@H]3CCC4=CCCC[C@@H]4C3C(=C)C[C@@]21CC (some centres undefined) | 1.02 |
| COCCOC(=O)N1C(=O)[C@@]2(c3cc(C#CC4(O)CCCCCC4)ccc31)[C@H](c1ccccc1OCCO)N1[C@H](c3ccccc3)[C@H](c3ccccc3)OC(=O)[C@H]1[C@@H]2C(=O)N1CCc2cc(OC)c(OC)cc2C1 | 1.02 |
| Cc1cc(C(=O)O)c(C#N)c(N)n1 | 1 |
| CC(C)(C)c1cc(C(=O)NN)no1 | 1.22 |
| O=C(C[C@@H]1CC[C@H]2[C@@H](COC[C@@H](O)CN2C(=O)Nc2ccc(F)cc2)O1)NCCCN1CCOCC1 | 1.01 |
| COc1cc(O)c(C(C)=O)c(OC)c1 | 1.13 |
| C#CCN(C)CCCOc1ccc(Cl)cc1Cl.Cl | 0.858 |
| Cc1ccc(S(=O)(=O)N2C[C@@H](O)COC[C@H]3O[C@H](CC(=O)N[C@H]4CCN(Cc5ccccc5)C4)CC[C@@H]32)cc1 | 1.06 |
| COc1cccc(S(=O)(=O)N(C)C[C@@H]2Oc3cc(C#CCN(C)C)ccc3S(=O)(=O)N([C@H](C)CO)C[C@@H]2C)c1 | 1.06 |
| COC(=O)C(CC#Cc1ccc2c(c1)[C@]1(C(=O)N2)[C@H](C(=O)N2CCc3cc(OC)c(OC)cc3C2)[C@H]2C(=O)O[C@H](c3ccccc3)[C@H](c3ccccc3)N2[C@@H]1c1ccc(O)cc1)C(=O)OC | 0.827 |
| Cn1c(CC#N)n[nH]c1=S | 1.03 |
| COc1ccccc1CN1C(=O)c2ccccc2[C@](Cc2ccccc2I)(C(=O)NCCCN(C)C)[C@@H]1c1ccc(CO)cc1 | 0.955 |
| CO/N=C(/C(=O)N[C@@H]1C(=O)N2C(C(=O)[O-])=C(COC(C)=O)CS[C@H]12)c1csc(N)n1.[Na+] | 0.161 |
| O=C1c2c(O)cc(CO)cc2[C@H](O[C@@H]2O[C@H](CO)[C@@H](O)[C@H](O)[C@H]2O)c2cccc(O[C@@H]3O[C@H](CO)[C@@H](O)[C@H](O)[C@H]3O)c21 [CASANTHRANOL [cascaroside A shown]] | 0.93 |
| CCNC(=O)C[C@@H]1CC[C@H](NC(=O)C2CC2)[C@@H](CO)O1 | 0.999 |
| NC(=O)C1N=CN([C@@H]2O[C@H](CO)[C@@H](O)[C@H]2O)C1=O (some centres undefined) | 0.995 |
| CSC1=NN(C)c2cnn(C)c(=O)c2S1 | 1 |
| CC(C)(C)NCCCCOc1ccc(Cl)cc1C(C)(C)C | 0.689 |
| CC(=O)O[C@H]1C[C@@H](OC(C)=O)C(C)(C)C2C[C@@H](OC(C)=O)[C@]3(C)C(CC[C@@]4(C)[C@H](c5ccoc5)OC(=O)[C@H]5O[C@]543)[C@]21C (some centres undefined) | 1.72 |
| CN1CCN(C(=O)C[C@@H]2CC[C@H]3[C@@H](COC[C@@H](O)CN3S(=O)(=O)c3cccc(F)c3)O2)CC1 | 1.08 |
| O=C(C[C@@H]1C[C@H]2c3cc(NS(=O)(=O)c4ccccc4)ccc3O[C@H]2[C@H](CO)O1)NCC(F)(F)F | 1.06 |

| Compound | relative growth |
| --- | --- |
| COCCNC(=O)C[C@H]1C[C@@H]2c3cc(NS(C)(=O)=O)ccc3O[C@@H]2[C@H](CO)O1 | 0.991 |
| Nc1ccc(S(=O)(=O)Nc2ccc(Cl)nn2)cc1 | 0.982 |
| CCC(=O)N1CCN=C1SC | 0.884 |
| C[C@H]1CN([C@@H](C)CO)C(=O)CCCn2cc(nn2)CO[C@@H]1CN(C)C(=O)Nc1cccc2ccccc12 | 1.14 |
| COCC#Cc1ccc2c(c1)O[C@@H](CN(C)S(=O)(=O)c1ccc(F)cc1)[C@@H](C)CN([C@H](C)CO)S2(=O)=O | 1.04 |
| N#CCCS(=O)(=O)c1ccc(N)cc1 | 1.08 |
| Cc1cc(/C=C/c2ccc3cc(N(C)C)ccc3[n+]2C)c(C)n1-c1ccccc1.O=C([O-])c1cc2ccccc2c(Cc2c(O)c(C(=O)O)cc3ccccc23)c1O | 2.46 |
| O=C1c2c(O[C@@H]3O[C@H](CO)[C@@H](O)[C@H](O)[C@H]3O)cc(O)cc2O[C@@]1(O)Cc1ccc(O)cc1 | 1.05 |
| COC(=O)c1ccccc1N(C)S(C)(=O)=O | 0.905 |
| COc1cccc(S(=O)(=O)N2C[C@H](O)COC[C@H]3O[C@@H](CC(=O)N4CCN(C)CC4)CC[C@@H]32)c1 | 0.967 |
| COc1ccc(NC(=O)N2C[C@@H](O)COC[C@@H]3O[C@@H](CC(=O)NCc4ccccc4OC)CC[C@H]32)cc1 | 1.1 |
| C[C@H]1CN([C@@H](C)CO)C(=O)CCCn2cc(nn2)CO[C@@H]1CN(C)C(=O)c1ccc(N2CCN(C)CC2)cc1 | 0.885 |
| CCOC(=O)c1cccnc1N | 1.03 |
| C=CCOC(=O)[C@H]1[C@@H]2C(=O)O[C@@H](c3ccccc3)[C@@H](c3ccccc3)N2[C@@H](c2ccc(OCCOC(=O)[C@@H]3C[C@@H]4C(=O)N[C@@H](CCCCNC(C)=O)C(=O)N4[C@@H]3c3ccc(O)cc3)cc2)[C@]12C(=O)Nc1ccccc12 | 1.52 |
| COC1=C(O)C(=O)c2c(cc3oc(C(C)=O)c(O)c3c2O)C1=O | 0.976 |
| CN(C)C(=O)C[C@H]1CC[C@H](NC(=O)C2CC2)[C@H](CO)O1 | 1.22 |
| O=C(N/N=C/[C@H](O)[C@@H](O)[C@@H](O)[C@H](O)C(=O)O)c1ccccc1O | 0.893 |
| Oc1ccc(O)cc1 | 0.918 |
| COc1cccc(S(=O)(=O)N[C@H]2CC[C@@H](CCn3cc(-c4ccccc4OC)nn3)O[C@@H]2CO)c1 | 0.921 |
| C[C@H](O)C#Cc1ccc2c(c1)O[C@@H](CN(C)C(=O)Nc1ccccc1)[C@H](C)CN([C@@H](C)CO)S2(=O)=O | 1.12 |
| CC1=C2C(O)C(=O)OC3CC4C(C)(C)C(=O)C=C[C@]4(C)C(CC1)[C@]23C (some centres undefined) | 0.917 |
| COCC#Cc1ccc2c(c1)O[C@H](CN(C)Cc1ccc(F)cc1)[C@H](C)CN([C@@H](C)CO)S2(=O)=O | 0.945 |
| COC(=O)C1=C(C)NC(C)=C(C(=O)OC)C1 | 0.988 |
| C[C@]12CCC(=O)C=C1C=CC1C2CC[C@@]2(C)C1CC[C@@]21CCC(=O)O1 (some centres undefined) | 1 |
| O.OC[C@H]1O[C@@H](O[C@H]2[C@H](O)[C@@H](O)[C@@H](O)O[C@@H]2CO)[C@H](O)[C@@H](O)[C@H]1O | 1.11 |
